## Ab-91 heavy chain CDR variants: yeast mating affinities

Values reported by Engelhart et al. 2022, doi:10.1038/s41597-022-01779-4 (FLAb copy).

Target peptide (SARS-CoV-2 spike, HR2 region): PDVDLGDISGINAS

Each scFv is VL, a 15-residue (Gly4Ser)3 linker, VH, as in the parent Ab-91, and differs from it in the CDRs of the heavy chain only.
VL: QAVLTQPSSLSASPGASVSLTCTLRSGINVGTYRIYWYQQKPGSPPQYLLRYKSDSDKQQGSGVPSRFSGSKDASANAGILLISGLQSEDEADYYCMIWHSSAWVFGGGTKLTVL
VH: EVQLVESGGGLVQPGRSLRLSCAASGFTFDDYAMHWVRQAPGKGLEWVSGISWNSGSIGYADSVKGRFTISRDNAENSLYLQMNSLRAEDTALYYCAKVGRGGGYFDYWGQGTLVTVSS

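AAYL51 was designed without a model: most single CDR substitutions and a random sample of double and triple ones. The scFvs were displayed on barcoded MATa yeast, the peptide on MATalpha yeast. After mating in shaken culture at 30 °C for 16 h, diploids were selected and their barcode pairs sequenced. A regression on co-assayed BCL2-family reference pairs converts the normalised counts of each replicate to an apparent Kd. There are three technical replicates.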

Positions count from residue 1 of the parent VH; H35M puts M in place of H.
This list gathers variants with a substitution at A61 (VH, numbered from residue 1).
Affinities are written as log10 Kd with Kd in nM; a lower number is a better binder.
Replicates are averaged; those with no signal do not enter the mean.
"no signal" means that the variant was in the library but no mating with the target was seen in any replicate; the authors take this as a sign of poor binding, and no number exists.

With H35M A61R S63L the result was 5.41 (3 of 3 replicates). For I51T N54R A61V, the assay gave 5.01 (1 of 3 replicates). For N54P A61Q, the assay gave 4.68 (2 of 3 replicates). With F27L T28C A61W the result was no signal (0 of 3 replicates). For G59V A61R Y108I, the assay gave no signal (0 of 3 replicates). Variant A33N N54L A61L showed no signal (0 of 3 replicates). Variant H35K A61C G103D showed no signal (0 of 3 replicates). Variant A61T showed 3.44 (2 of 3 replicates).

Variant S55T A61W D62P gave 5.58 (2 of 3 replicates). Variant A61E S63D G103Q showed 3.91 (1 of 3 replicates). Variant H35M I51D A61D gave 5.07 (1 of 3 replicates). Variant D30I A61G R101H showed 3.12 (1 of 3 replicates). For I51S A61G, the assay gave 4.67 (2 of 3 replicates). For G50N A61N G102S, the assay gave 4.97 (1 of 3 replicates). With Y60F A61V G100V the result was 5.63 (2 of 3 replicates). Variant M34F A61D G103A gave no signal (0 of 3 replicates).

Variant W53C A61I K65E gave 4.91 (2 of 3 replicates). Variant A33I M34A A61Q gave 4.06 (1 of 3 replicates). For A33N G50E A61C, the assay gave 5.52 (2 of 3 replicates). Variant F27D H35E A61Y showed 3.91 (1 of 3 replicates). Variant F29N A61D G102K showed 4.02 (1 of 3 replicates). For T28N A61H Y105R, the assay gave no signal (0 of 3 replicates). Variant M34Y A61I V99C showed no signal (0 of 3 replicates). Variant Y60C A61Y gave no signal (0 of 3 replicates).

Variant M34T I51W A61Y showed 6.07 (1 of 3 replicates). Variant H35K A61C S63K showed no signal (0 of 3 replicates). Variant G56Y A61R gave 4.76 (3 of 3 replicates). With I51V S52I A61K the result was no signal (0 of 3 replicates). With A61C D62N V99L the result was 4.87 (3 of 3 replicates). With A61D V64W G102Y the result was 5.11 (2 of 3 replicates). With F29R N54F A61V the result was no signal (0 of 3 replicates). For F29V A61E D62Y, the assay gave no signal (0 of 3 replicates).

With A61H Y108Q the result was 0.76 (3 of 3 replicates). For A61P V99L Y108F, the assay gave 5.83 (2 of 3 replicates). Variant F27A A61Y V64G showed 3.77 (1 of 3 replicates). Variant G50W Y60L A61C gave no signal (0 of 3 replicates). Variant G26W G50M A61H gave 4.54 (1 of 3 replicates). For D31A A61V G100S, the assay gave 4.57 (2 of 3 replicates). Variant A61T S63G F106S showed no signal (0 of 3 replicates).

Repeated from above, the 4 best binders with a signal in all replicates:

With A61H Y108Q the result was 0.76 (3 of 3 replicates).
With G56Y A61R the result was 4.76 (3 of 3 replicates).
With A61C D62N V99L the result was 4.87 (3 of 3 replicates).
With H35M A61R S63L the result was 5.41 (3 of 3 replicates).

In this assay the parent's reference entry averaged 1.86; its copy inside this library read 0.88.
Empty control strains, which show no peptide, gave a signal in 21% of pairings with library AAYL51; the median was 4.54 and 95% of these signals were weaker than 3.26. No background was subtracted.